The record followed here is ChEMBL document CHEMBL5728058, “3-(carboxymethyl)-8-amino-2-oxo-1,3-diaza-spiro-[4.5]-decane derivatives” (2020).

By UniProt entry, the sequences of proteins in these tests, tags left out. Where a name states a change or a piece, a line headed by the entry shows the natural chain unless it says otherwise.
UniProt P41146: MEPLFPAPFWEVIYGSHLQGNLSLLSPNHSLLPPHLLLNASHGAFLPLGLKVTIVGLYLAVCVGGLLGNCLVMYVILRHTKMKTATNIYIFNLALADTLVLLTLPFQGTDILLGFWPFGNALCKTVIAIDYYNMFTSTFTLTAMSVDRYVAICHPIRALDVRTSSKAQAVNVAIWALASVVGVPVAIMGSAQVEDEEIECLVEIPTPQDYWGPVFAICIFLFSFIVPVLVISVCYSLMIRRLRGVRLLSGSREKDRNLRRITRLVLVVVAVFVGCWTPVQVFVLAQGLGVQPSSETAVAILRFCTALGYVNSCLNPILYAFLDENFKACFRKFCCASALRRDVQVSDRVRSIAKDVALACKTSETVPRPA
UniProt P35372, whole entry, looked up: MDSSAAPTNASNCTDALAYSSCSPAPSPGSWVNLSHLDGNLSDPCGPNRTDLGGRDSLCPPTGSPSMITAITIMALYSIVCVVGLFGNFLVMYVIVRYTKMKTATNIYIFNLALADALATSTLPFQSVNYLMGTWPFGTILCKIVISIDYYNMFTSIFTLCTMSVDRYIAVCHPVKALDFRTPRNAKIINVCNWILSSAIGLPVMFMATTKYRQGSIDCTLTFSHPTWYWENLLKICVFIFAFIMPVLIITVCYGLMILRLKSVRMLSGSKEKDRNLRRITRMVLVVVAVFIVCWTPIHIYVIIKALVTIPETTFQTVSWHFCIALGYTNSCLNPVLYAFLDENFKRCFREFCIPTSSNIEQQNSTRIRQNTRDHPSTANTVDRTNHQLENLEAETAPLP

Usually Ki stands for a measure of affinity in units of concentration, obtained from inhibition or displacement. Lower therefore signals higher affinity.

The target in one assay is Nociceptin receptor (Homo sapiens, UniProt P41146). The assay can be described thus: Human Nociceptin/Orphanin FQ Peptide (hNOP) Receptor Binding Assay: The hNOP receptor binding assay was performed as homogeneous SPA-assay (scintillation proximity assay) using the assay buffer 50 mM TRIS-HCl, 10 mM MgCl2, 1 mM EDTA (pH 7.4). The final assay volume (250 μl/well) included 0.5 nM of [leucyl-3H]nociceptin as ligand (PerkinElmer Life Sciences, Inc. Boston, Mass., USA), and either test.

The target in the next assay is Mu-type opioid receptor (Homo sapiens, UniProt P35372). The assay can be described thus: Human Mu-Opioid Peptide (hMOP) Receptor Binding Assay: The hMOP receptor binding assay was performed as homogeneous SPA-assay (scintillation proximity assay) using the assay buffer 50 mM TRIS-HCl (pH 7.4) supplemented with 0.052 mg/ml bovine serum albumin (Sigma-Aldrich Co., St. Louis, Mo.). The final assay volume (250 μl/well) included 1 nM of [N-allyl-2,3-3H]naloxone as ligand (PerkinElmer Life. In general terms: Scintillation proximity formats need no separation of bound from free tracer.

As for `CN(C)[C@]1(c2ccc(F)cc2)CC[C@]2(CC1)CN(CC(=O)NCCO)C(=O)N2CC1CCC1`, the Ki on Nociceptin receptor was 11 nM; at Mu-type opioid receptor, 86 nM.

Turning to `CCCN1C(=O)N(CC(=O)N2CCS(=O)(=O)CC2)C[C@]12CC[C@](c1ccccc1)(N(C)C)CC2`, the figures for the Ki on Nociceptin receptor and on Mu-type opioid receptor were 22 nM and 97 nM, respectively.
